The assay addresses human thrombin (Homo sapiens, UniProt P00734). Nature of the assay: Inhibition of thrombin hydrolysis of chromogenic substrate S2238 (Ki). The settings on record: read-out: Thrombin Ki, S2238, pH 7.5.

The structures appear in SMILES notation. pKi: −log10 of the molar value.

On to `CC(=O)N[C@H](Cc1ccccc1)C(=O)N1CCC[C@H]1C(=O)NC(B1OC2CC3CC(C3(C)C)C2(C)O1)c1ccc(CC#N)cc1` (stereo partly shown), for which the pKi – broadly, −log10 of the Ki, conventionally taken in molar units – was over 6.30.

The values above are taken from US5658885A, “Amidino and guanidino substituted boronic acid inhibitors of trypsin-like enzymes” (The DuPont Merck Pharmaceutical Company, priority 1994, dated 1997).
